For orientation: inhibition means the relative decrease from the control value, in per cent.

Only a part is listed here, and it is no random draw. Some results for these compounds are left out of this collection, so the calls shown say nothing about other tests. Activity calls are given as the source filed them.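 How the source made its calls: active means inhibition of the luminescence signal of 40% or more relative to plate controls, in a single-dose primary screen at 18.75 µM; inactive means the rest.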

This assay in a line: blockers of HIF-2a driven luciferase – luminescence, 786-0 RCC cells, primary screen (AID 624352). Conditions: 786-0 RCC cells HIF-2a reporter, overnight, at 18.8 µM, stronger effect = higher value.
With `COc1ccc(C(=O)NCC2(N(C)C)CCCCC2)cc1`, the inhibition is inactive: 13.6%.
For the compound `Cc1cc(C(=O)NCC2(N3CCCCC3)CCCCC2)ccc1[N+](=O)[O-]`, the inhibition is inactive: 3.38%.
`CCN1CCCC(OC(=O)C2(O)c3ccccc3C=Cc3ccccc32)C1` (stereo unspecified): the inhibition is inactive: 13.7%.
The value for `O=C(NCC1(N2CCCCC2)CCCCC1)c1cccc(Br)c1` was inactive: 18.5%; that for `C=CCN1CCN(CCOC(=O)C(O)(c2ccccc2)c2ccccc2)CC1` was inactive: 5.12%.
As for `O=C(NCC1(N2CCCCC2)CCCCC1)c1cc(F)c(F)cc1Cl`, the inhibition was inactive: 12.1%.
For the compound `Cc1ccccc1C(=O)NCC1(N2CCCCC2)CCCCC1`, the inhibition is inactive: 14.2%.
The value for `CN(C)C1CCCC1OC(=O)C(O)(c1ccccc1)c1ccccc1` (stereo unspecified) was inactive: 9.31%; that for `CN(C)c1ccc(C(=O)NCC2(N(C)C)CCCCC2)cc1` was inactive: -2.74%.
For `Cc1ccc(C(=O)NCC2(N3CCCCC3)CCCCC2)cc1`, the inhibition is inactive: 4.76%.
In the case of `CCN(CC)CC(C)C(C)OC(=O)C(O)(c1ccccc1)c1ccccc1` (stereo unspecified), the inhibition is inactive: 11.8%.
Take `COc1cc(SC)ccc1C(=O)NCC1(N(C)C)CCCCC1`: the inhibition was inactive: 8.59%.
In the case of `CC(C)N1C(=O)CC2(CCN(CCOC(=O)C(O)(c3ccccc3)c3ccccc3)CC2)C1=O` it was inactive: 11%.
As for `CN1[C@@H]2CC[C@H]1CC(OC(=O)C(O)(c1ccccc1)c1ccccc1)C2` (stereo partly specified), the inhibition is inactive: 12.8%.
The value for `O=C(NCC1(N2CCCCC2)CCCCC1)c1cc([N+](=O)[O-])ccc1Cl` was inactive: 8.89%; that for `CC(C)Oc1ccc(C(=O)NCC2(N(C)C)CCCCC2)cc1` was inactive: -4.27%; that for `O=C(OCCN1CCCC1)C(O)(c1ccccc1)c1ccccc1` was inactive: 4.53%.
In the case of `CN(C)c1cccc(C(=O)NCC2(N(C)C)CCCCC2)c1`, the inhibition was inactive: -2.71%.
Consider `C=C(C)C#CC(O)(C(=O)OC1CCN(C)CC1)c1ccccc1` (stereo unspecified), for which the inhibition is inactive: 4.79%.
Consider `COc1ccc(Br)c(C(=O)NCC2(N3CCCCC3)CCCCC2)c1`, for which the inhibition is inactive: -5.04%.
In the case of `O=C(OC1CN2CCC1CC2)C(CO)(c1ccccc1)c1ccccc1` (stereo unspecified) it was inactive: 4.67%; in that of `O=C(NCC1(N2CCCCC2)CCCCC1)c1cccc(Cl)c1`, inactive: 8.61%; in that of `COc1cccc(C(=O)NCC2(N3CCCCC3)CCCCC2)c1`, inactive: 10.5%.
On to `COc1ccc(Cl)cc1C(=O)NCC1(N(C)C)CCCCC1`, for which the inhibition is inactive: 7.52%.
The value for `COc1cc(C(=O)NCC2(N(C)C)CCCCC2)c([N+](=O)[O-])cc1OC` was inactive: 14.7%.
The value for `CN(C)C1(CNC(=O)c2ccc(Br)cc2)CCCCC1` was inactive: 10.5%.

The values are drawn from PubChem BioAssay AID624352 (Sanford-Burnham Center for Chemical Genomics, 2012).
